Measurements from patent publication US7339023B2, “Partial peptide mimetics and methods” (Regents of the University of Minnesota, priority 2002, dated 2008).

Legend:
[1] = Toxicity assays (body weight, behavior, hematocrit, creatinine, autopsy); type: in vivo, mice; conditions: for Signs of toxicity (behavior, weight gain): all in vivo experiments, data not shown; for Macro- and microscopic morphology of internal organs on autopsy: mouse, in vivo; for Creatinine levels / Hematocrit levels: one day after terminating treatment, relative to control
Protocol: As an indirect measurement of general toxicity, body weights of mice were monitored twice weekly, using a digital balance (Ohaus Florham, N.J.). To determine hematocrit and creatinine levels, blood samples were extracted by tail vein bleedings one day after terminating treatment and blood was collected in heparinized micro-bematocrit capillary tubes (Fisher; Pittsburgh, Pa.). For hematocrit levels, samples were spun down for 10 minutes in a micro-hematocrit centrifuge (Clay-Adams; NY), and the amount of hematocrit was determined using an international microcapillary reader (IEC; Needham, Mass.). To obtain creatinine levels, a kit was purchased from Sigma (Sigma Diagnostics; St Louis, Mo.) and used according to the manufacturer's instructions.

[2] = Water solubility (observed during NMR work); type: physicochemical

## SVQMKL-[DBF]-IIVKLND [6DBF7]
[1]
  Signs of toxicity (behavior, weight gain): did not show any sign of toxicity
  Macro- and microscopic morphology of internal organs on autopsy: normal
  Creatinine levels: normal relative to control
  Hematocrit levels: normal relative to control
[2]
  Water solubility: limited water solubility

## ANIKLSVQMKL-[DBF]-IIVKLND [11DBF7]
[1]
  Signs of toxicity (behavior, weight gain): did not show any sign of toxicity
  Macro- and microscopic morphology of internal organs on autopsy: normal
  Creatinine levels: normal relative to control
  Hematocrit levels: normal relative to control
[2]
  Water solubility: limited water solubility
